# This is a selection; strong and weak results do not stand in their true shares. Activity calls are given as the source filed them.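 Rule for the calls: active = inhibition above about 50% at the single tested dose (limit read from the data); inactive = the rest.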
# The chains behind the UniProt entries cited, without tags or fusion partners. Residues count along the entry.
# UniProt Q9GZR1, 628-1112 limits assumed: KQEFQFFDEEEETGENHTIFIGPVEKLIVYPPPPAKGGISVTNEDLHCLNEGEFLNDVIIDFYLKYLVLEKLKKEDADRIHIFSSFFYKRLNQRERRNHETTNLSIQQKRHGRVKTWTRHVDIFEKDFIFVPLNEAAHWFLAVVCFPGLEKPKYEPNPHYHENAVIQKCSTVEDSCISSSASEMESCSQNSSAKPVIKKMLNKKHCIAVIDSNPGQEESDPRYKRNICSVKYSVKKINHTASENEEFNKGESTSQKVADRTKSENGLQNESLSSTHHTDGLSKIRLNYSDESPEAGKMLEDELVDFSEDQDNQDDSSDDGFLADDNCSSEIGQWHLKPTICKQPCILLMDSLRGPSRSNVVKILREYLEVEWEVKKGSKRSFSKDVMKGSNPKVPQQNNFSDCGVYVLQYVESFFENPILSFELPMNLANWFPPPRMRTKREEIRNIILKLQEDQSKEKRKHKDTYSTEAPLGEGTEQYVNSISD
# Target: Sentrin-specific protease 6 (Homo sapiens) (UniProt Q9GZR1)
# Test: SENP6 protease inhibitors, primary screen, biochemical, luminescence, uHTS (AID 2599);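 note: plate controls were DMSO wells with enzyme for no effect and DMSO wells lacking enzyme for full effect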
# Settings: Recombinant SENP6 catalytic domain, aminoluciferin luminescence; at 10 µM; active compounds read high
row,Structure (SMILES),inhibition
1,O=C(NCC1(N2CCOCC2)CCCCC1)c1cc(=O)[nH]c2ccccc12,inactive: -5.87%
2,COc1cc(C(=O)NCC2(N3CCCCC3)CCCCC2)ccc1OC(F)F,inactive: 8.87%
3,CC(C)c1ccc(C(=O)NCC2(N3CCOCC3)CCCCC2)cc1,inactive: 1.22%
4,COc1ccc(NC2CCN(C(=O)OC(C)(C)C)CC2)cc1,inactive: 1.08%
5,CN1CCN(CCOC(=O)C(O)(c2ccccc2)c2ccccc2)CC1,inactive: 1.27%
6,O=C(NCC1(N2CCCCC2)CCCCC1)c1cccc(C(F)(F)F)c1,inactive: -27.7%
7,N#CC1(Nc2ccccc2)CCN(CCc2ccccc2)CC1,inactive: -6.42%
8,CCN1CCC(Nc2ccc(Cl)cc2)CC1,inactive: 11.9%
9,O=C(NCC1(N2CCCCC2)CCCCC1)c1cccc([N+](=O)[O-])c1,inactive: -25.8%
10,CSc1ccc(C(=O)NCC2(N3CCOCC3)CCCCC2)cc1,inactive: -18.6%
11,O=C(NCC1(N2CCCCC2)CCCCC1)c1ccc(OC(F)F)cc1,inactive: -5.48%
12,CN1CCC(Nc2cccc(F)c2)CC1,inactive: -6.49%
13,O=C(NCC1(N2CCCCC2)CCCCC1)c1cncc(Br)c1,inactive: -9.95%
14,O=C(NCC1(N2CCOCC2)CCCCC1)c1cc(F)c(F)cc1Cl,inactive: -1.92%
15,COc1cc(OC)c(C(=O)NCC2(N(C)C)CCCCC2)cc1OC,inactive: -34%
16,CC(C)c1ccc(NC2CCN(C(=O)OC(C)(C)C)CC2)cc1,inactive: -12.1%
17,CN(C)c1cccc(C(=O)NCC2(N3CCCCC3)CCCCC2)c1,inactive: 10.5%
18,COc1ccc(CN(CCCl)CCCl)cc1Cl,inactive: -10.1%
19,COc1ccc(Cl)cc1C(=O)NCC1(N2CCOCC2)CCCCC1,inactive: 9.36%
20,O=C(NCC1(N2CCCCC2)CCCCC1)c1ccc(Cl)s1,inactive: -1.89%
21,N#CC1(Nc2ccccc2)CCN(Cc2ccccc2)CC1,inactive: -14.2%
22,O=C(OC1CN2CCC1CC2)C1c2ccccc2Oc2ccccc21 (configuration not stated),inactive: 16.7%
23,CCOC(=O)N1CCC(Nc2ccc(OC)cc2)CC1,inactive: -5.88%

row,Structure (SMILES),inhibition
1,Cc1cc(C)cc(N(C(=O)c2ccccc2)C2CCN(C(=O)OC(C)(C)C)CC2)c1,inactive: -28.9%
2,O=C(NCC1(N2CCCCC2)CCCCC1)c1ccc(Cl)nc1,inactive: -17%
3,O=C(NCC1(N2CCOCC2)CCCCC1)c1cc2ccccc2o1,inactive: -0.195%
4,CSc1ccccc1C(=O)NCC1(N2CCCCC2)CCCCC1,inactive: -17.2%
5,CC(C)(C)OC(=O)N1CCC(N(C(=O)c2ccccc2)c2ccc(F)cc2)CC1,inactive: 11.1%
6,COc1ccc(C(=O)NCC2(N3CCCCC3)CCCCC2)c(OC)c1OC,inactive: -14.1%
7,COc1ccc(C(=O)NCC2(N3CCCCC3)CCCCC2)cc1,inactive: -5.84%
8,O=C(NCC1(N2CCCCC2)CCCCC1)c1cccs1,inactive: 2.21%
9,O=C(NCC1(N2CCCCC2)CCCCC1)c1ccc(=O)[nH]c1,inactive: -15.6%
10,Cc1ccc(OCC(C)C)c(CN(CCCl)CCCl)c1,inactive: 0.083%
11,CCOC(=O)N1CCC(Nc2cccc(C)c2)CC1,inactive: 10.5%
12,CCOC(=O)N1CCC(Nc2ccc(F)cc2)CC1,inactive: 3.76%
13,COc1ccc(NC2CCN(CCc3ccccc3)CC2)c(OC)c1,inactive: -9.14%
14,CCCCOc1ccc(C(=O)NCC2(N3CCOCC3)CCCCC2)cc1,inactive: 2.39%
15,O=C(NCC1(N2CCCCC2)CCCCC1)c1ccc(F)cc1,inactive: -13.7%
16,CCOc1ccc(C)cc1CN(CCCl)CCCl,inactive: -14.5%
17,CN(C)c1ccc(C(=O)NCC2(N3CCCCC3)CCCCC2)cc1,inactive: -12.2%
18,O=C(NCC1(N2CCCCC2)CCCCC1)c1ccco1,inactive: -6.9%
19,CCN1CCC(Nc2cccc(F)c2)CC1,inactive: 2.89%
20,Fc1ccccc1NC1CCN(Cc2ccccc2)CC1,inactive: -82.2%
21,Cc1ccc(C(=O)NCC2(N3CCCCC3)CCCCC2)o1,inactive: 0.055%
22,COc1cc(OC)cc(C(=O)NCC2(N3CCCCC3)CCCCC2)c1,inactive: -1.54%
23,CN1CCC(Nc2ccc(Cl)cc2)CC1,inactive: -5.07%

row,Structure (SMILES),inhibition
1,CCCOc1ccc(C)cc1CN(CCCl)CCCl,inactive: -10.6%
2,COc1cccc(C(=O)N(c2cc(C)cc(C)c2)C2CCN(C(=O)OC(C)(C)C)CC2)c1,inactive: 7.35%
3,COc1cc(OC)cc(C(=O)NCC2(N3CCOCC3)CCCCC2)c1,inactive: -21.4%
4,CCC(CO)(C(=O)OC1CN2CCC1CC2)c1ccccc1 (configuration not stated),inactive: -0.675%
5,O=C(O)C1(Nc2ccccc2)CCN(Cc2ccccc2)CC1,inactive: -17.7%
6,CC(C)(C)OC(=O)N1CCC(Nc2ccccc2)CC1,inactive: -5.12%
7,CCCOc1ccc(C(=O)NCC2(N(C)C)CCCCC2)cc1,inactive: -8.8%
8,CN1CCC(Nc2ccc(F)c(Cl)c2)CC1,inactive: -6.48%
9,CCOc1ncccc1C(=O)NCC1(N2CCOCC2)CCCCC1,inactive: 9.72%
10,CCc1cc(C(=O)NCC2(N3CCCCC3)CCCCC2)sc1C,inactive: 3.59%
11,O=C(OC1CN2CCC1CC2)C1c2ccccc2C=Cc2ccccc21 (configuration not stated),inactive: -17.2%
12,CCOC(=O)N1CCC(Nc2ccc(C)cc2)CC1,inactive: 14.7%
13,N/C(=N\O)c1c(N)no[n+]1[O-],inactive: -13.6%
14,COc1ccc(C(=O)NCC2(N3CCOCC3)CCCCC2)cc1OC,inactive: -8.37%
15,COc1cc(C(=O)NCC2(N3CCOCC3)CCCCC2)cc(OC)c1C,inactive: 0.274%
16,O=C(NCC1(N2CCOCC2)CCCCC1)c1cc(Br)ccc1Cl,inactive: -25.2%
17,CN(C)C1(CNC(=O)c2cccc(C#N)c2)CCCCC1,inactive: 16.7%
18,CCCN1CCC(Nc2cc(OC)cc(OC)c2)CC1,inactive: -6.48%
19,c1ccc(CN2CCC(Nc3ccccc3)CC2)cc1,inactive: 3.69%
20,N#Cc1ccc(C(=O)NCC2(N3CCCCC3)CCCCC2)cc1,inactive: 27.2%
21,CC(C)(C)OC(=O)N1CCC(N(C(=O)c2ccccc2)c2ccc(Cl)cc2)CC1,inactive: -4.94%
